Chains of the proteins cited; added tags and fusions are not shown.
UniProt P35991, whole entry: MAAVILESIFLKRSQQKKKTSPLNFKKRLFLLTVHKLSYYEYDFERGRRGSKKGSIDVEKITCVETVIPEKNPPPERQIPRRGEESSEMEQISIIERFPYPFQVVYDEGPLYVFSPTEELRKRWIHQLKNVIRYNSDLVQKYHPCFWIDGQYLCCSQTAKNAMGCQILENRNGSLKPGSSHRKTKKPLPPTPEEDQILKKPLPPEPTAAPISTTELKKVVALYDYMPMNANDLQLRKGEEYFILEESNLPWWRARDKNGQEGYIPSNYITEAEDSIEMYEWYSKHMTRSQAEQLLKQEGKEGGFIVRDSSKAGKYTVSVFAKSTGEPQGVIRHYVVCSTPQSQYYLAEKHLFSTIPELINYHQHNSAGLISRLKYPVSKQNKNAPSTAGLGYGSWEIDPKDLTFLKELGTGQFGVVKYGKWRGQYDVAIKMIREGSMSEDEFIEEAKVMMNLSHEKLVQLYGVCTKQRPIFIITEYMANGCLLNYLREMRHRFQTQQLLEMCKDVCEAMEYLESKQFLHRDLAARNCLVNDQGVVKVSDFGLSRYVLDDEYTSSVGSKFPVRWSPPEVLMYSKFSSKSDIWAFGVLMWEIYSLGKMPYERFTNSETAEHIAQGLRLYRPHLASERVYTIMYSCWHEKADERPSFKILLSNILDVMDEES
UniProt Q06187, whole entry: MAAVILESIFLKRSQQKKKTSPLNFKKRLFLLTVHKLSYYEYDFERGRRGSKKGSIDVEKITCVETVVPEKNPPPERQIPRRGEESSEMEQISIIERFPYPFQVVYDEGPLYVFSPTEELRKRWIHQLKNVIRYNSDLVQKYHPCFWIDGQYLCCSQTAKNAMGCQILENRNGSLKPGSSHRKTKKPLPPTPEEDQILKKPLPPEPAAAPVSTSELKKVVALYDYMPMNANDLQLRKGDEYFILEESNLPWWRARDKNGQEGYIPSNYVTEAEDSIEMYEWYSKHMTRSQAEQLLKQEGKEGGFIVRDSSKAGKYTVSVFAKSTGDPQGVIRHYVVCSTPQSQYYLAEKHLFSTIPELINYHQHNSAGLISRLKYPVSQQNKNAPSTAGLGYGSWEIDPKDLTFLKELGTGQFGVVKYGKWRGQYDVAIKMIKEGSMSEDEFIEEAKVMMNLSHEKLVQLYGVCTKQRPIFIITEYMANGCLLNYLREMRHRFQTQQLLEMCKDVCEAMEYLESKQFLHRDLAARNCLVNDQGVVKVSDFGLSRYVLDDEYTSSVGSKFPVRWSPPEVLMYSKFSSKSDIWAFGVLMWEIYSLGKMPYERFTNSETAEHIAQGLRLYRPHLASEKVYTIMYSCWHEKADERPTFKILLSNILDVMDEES

According to patent publication US10280169B2, “Biaryl bruton's tyrosine kinase inhibitors” (BIOGEN MA INC., priority 2013, dated 2019):

Tests used:
[1] = system: BTK phosphorylation; assay: In vitro PD assay in whole blood from Cynomolgus monkey; conditions: read-out: IC50 (concentration that inhibits 50% of ECL signal); whole blood from a Cynomolgus monkey, FIG. 4
Description: Heparinized venous blood from a Cynomolgus monkey was purchased from Bioreclamation, Inc. and shipped overnight. Whole blood was aliquoted into 96-well plate and “spiked” with serial dilutions of Compound A in DMSO or with DMSO without drug. The final concentration of DMSO in all wells was 0.1%. The plate was incubated at 37° C. for 30 min. Lysis buffer containing protease and phosphatase inhibitors was added to the drug-containing samples and one of the DMSO-only samples (+PPi, high control), while lysis buffer containing protease inhibitors was added to the other DMSO-only samples (−PPi, low control). All of the lysed whole blood samples were subjected to the total BTK capture and phosphotyrosine detection method described in Example 30. ECL values were graphed in Prism and a best-fit curve with restrictions on the maximum and minimum defined by the +PPi high and −PPi low controls was used to estimate the drug concentration that results in 50% inhibition of ECL signal by interpolation.

[2] = target: BTK phosphorylation (Mus musculus, UniProt P35991); assay: In vitro inhibition of BTK activity in mouse whole blood (pBTK, MSD ECL)
Description: Anti-rabbit MSD plates (Meso Scale Discovery, Rockville, Md.) are coated with 35 uL/well of rabbit anti-BTK C82B8 (Cell Signaling Technology, Danvers, Mass.) diluted 1:50 in PBS. Plates are incubated for 2 hours±1 hour at room temp, shaking (setting 3-5) or ON at 4° C. Plates are blocked with MSD Blocker A (Meso Scale Discovery, Rockville, Md.) using 3% MSD Blocker A in TBST. Coated plates are first washed 3× with 250 uL/well TBST followed by addition of 200 uL/well 3% Blocker A/TBST. Plates are blocked for >2 hour at RT, shaking or ON at 4° C.
Whole blood is collected from DBA/1 mice in 16×100 sodium heparin tubes (Becton Dickinson, Cat No. 367874). Blood from multiple DBA/1 mice is pooled. 96 uL of whole blood per well is aliquotted into a 96-round bottom plate changing tips each time. 4 uL diluted test compound is added to each sample, mixed, and incubated for 30 min at 37° C.
For serial dilutions of test compound, 1000× plate is produced with serial dilutions of test compound in 100% DMSO. […]
To develop and read the plates, 1× Read Buffer in dH2O is prepared from 4× stock. […] 150 uL of 1×MSD Read Buffer is added to each well. Plates are read in a SECTOR Imager 6000 (Meso Scale Discovery, Rockville, Md.). […]

[3] = target: phospho-BTK (Mus musculus, UniProt P35991); assay: PK/PD correlation in DBA1 mice (phospho-BTK in whole blood after oral dosing)
Description: Mice were dosed orally (PO) with test compound in CMC-Tween and killed by CO2 asphyxiation at various times after dosing. Heparinized whole blood was immediately collected by cardiac puncture and split into two samples. One sample was used to quantify the amount of test compound present and the other was lysed in MSD lysis buffer in the presence of phosphatase inhibitors. Heparinized whole blood from cardiac punctures of vehicle (CMC-Tween) dosed mice are lysed either in the presence (high control) or absence (low control) of phosphatase inhibitors. Lysed whole blood samples were analyzed for phospho-BTK as described above. The percent inhibition of phospho-BTK in each whole blood sample from dosed mice was calculated as follows: (1−((pBTK(x+PPi)−pBTK(vehicle−PPi))/(pBTK(vehicle+PPi))))*100, where pBTK(x+PPi) is the ECL signal for whole blood from each test compound-treated mouse, pBTK(vehicle−PPi) is the average ECL signal of whole blood from vehicle-treated mice lysed in the absence of phosphatase inhibitors (low control) and pBTK(vehicle+PPi) is the average ECL signal of whole blood from vehicle-treated mice lysed in the presence of phosphatase inhibitors (high control).
Mice were dosed orally with either vehicle, 0.1, 0.3, 1, 3, 10 or 30 mg drug/kg body weight and killed after one hour. […] The EC50 value was determined to be 218 nm, with a Hill slope of 0.35 and R^2 value of 0.61.

[4] = target: BTK phosphorylation (Homo sapiens, UniProt Q06187); assay: In vitro PD assay in whole blood from healthy donors or SLE patients
Description: Heparinized venous blood was purchased from Bioreclamation, Inc. or SeraCare Life Sciences and shipped overnight. Whole blood was aliquoted into 96-well plate and “spiked” with serial dilutions of test compound in DMSO or with DMSO without drug. The final concentration of DMSO in all wells was 0.1%. The plate was incubated at 37° C. for 30 min. Lysis buffer containing protease and phosphatase inhibitors was added to the drug-containing samples and one of the DMSO-only samples (+PPi, high control), while lysis buffer containing protease inhibitors was added to the other DMSO-only samples (−PPi, low control). All of the lysed whole blood samples were subjected to the total BTK capture and phosphotyrosine detection method described in Example 30. ECL values were graphed in Prism and a best-fit curve with restrictions on the maximum and minimum defined by the +PPi high and −PPi low controls was used to estimate the test compound concentration that results in 50% inhibition of ECL signal by interpolation.
Heparinized venous blood from healthy controls (HC) was obtained from in-house donors. Blood from a patient diagnosed with Systemic Lupus Erythematosis (SLE) was purchased from Bioreclamation, Inc. and shipped overnight. The assay was carried out as described above in Example 32, using Compound A as a test drug compound.

IC50 [1]: 589 nM | IC50 ([2]; read-out: IC50 (drug concentration that produces a 50% inhibition of BTK phosphorylation), pooled heparinized mouse whole blood, 30 min at 37° C., interpolated from best-fit curve): 443 nM | Hill slope ([3]; fit of % inhibition of phospho-BTK versus plasma concentration, oral dosing, one hour): 0.35 | IC50 ([4]; read-out: IC50 (concentration that inhibits 50% of ECL signal), whole blood from a SLE patient, FIG. 3C): 1700 nM | IC50 ([4]; read-out: IC50 (concentration that inhibits 50% of ECL signal), whole blood from a healthy control, FIG. 3A): 400 nM | IC50 ([4]; read-out: average IC50 value, whole blood from 19 healthy controls, FIG. 3B): 401 nM
Compound: Cc1cc(-c2ccnc(Nc3cnn(C)c3)n2)ccc1CNC(=O)c1cnc(C(C)(C)C)s1
inhibition of BTK phosphorylation ([2]; mouse whole blood, FIG. 1): inhibited BTK phosphorylation in a dose dependent manner | EC50 ([3]; read-out: in vivo EC50 (% inhibition of phospho-BTK versus plasma concentration), mice dosed orally 0.1-30 mg/kg, killed after one hour, best-fit curve): 218 nM

Read-outs that look alike come from different tables or passages of the source.
